# Assays:
# Format in all cases: in vivo, NodScid mice
# HNSCC tumor biopsy = test: PDX efficacy study, tumor recurrence after Cetuximab±Afatinib (Example 7)
# Method: Experimental system: Patient-derived xenograft (PDX) of HNSCC tumor biopsy subcutaneous implanted into NodScid mice.
# Treatment groups included: • 1. Vehicle-control: Vehicle (0.5% Hydroxymethyl-cellulose, 0.4% Tween-80) 200 μl PO (5 times/week, qd). • 2. […] Cetuximab 1 mg/mouse IP (2 times/week). • 4. […] Cetuximab 1 mg/mouse IP (2 times/week)+Afatinib 25 mg/kg in vehicle PO (5 times/week) • 6.
# [1] = test system: Adnexal adeno metastatic carcinoma biopsy; test: PDX efficacy study with Cetuximab (Example 11)
# Method: Experimental system: Patient-derived xenograft (PDX) of human primary Adnexal adeno metastatic carcinoma biopsy subcutaneous implanted into NodScid mice.
# • Biopsy: fresh human Adnexal adeno carcinoma metastatic (skin) biopsy (sample ID: RA-162) • Implantation of tumor biopsy grafts (P3) into NodScid mice for efficacy study: When tumors (P2) reached average size of about 1500 mm^3, tumor tissue was injected into 50 male NodScid mice, generated by in-house breeding in the animal facilities of Bar Ilan University, at the same procedure described in example 1. • 19 mice whose tumors reached average size of about 90 mm^3 were included in the study.
# The mice were divided into 4 groups and the following treatments initiated (day 0): • Control: Vehicle of NT219 (20% HPbCD) 50 μl IV twice a week—5 mice • Compound D 70 mg/kg IV twice a week—6 mice • Cetuximab 1 mg/mouse IP twice a week—5 mice • Cetuximab (1 mg/mouse IP)+Compound D (70 mg/kg IV), twice a week—3 mice
# (§1) In the combination group Cetuximab was administered ˜4 hr following Compound D.
# [2] = test system: colon metastatic carcinoma biopsy; test: PDX efficacy study with Cetuximab and FOLFIRI (Example 12); conditions: start ~110 mm^3; 14 days
# Method: Experimental system: Patient-derived xenograft (PDX) of human primary colon metastatic carcinoma biopsy subcutaneous implanted into NodScid mice.
# • Biopsy: fresh human colon cancer biopsy (sample ID: RA-149) • Implantation of tumor biopsy grafts (P4) into NodScid mice for efficacy study: When tumors (P3) reached average size of about 1500 mm^3, tumor tissue was injected into male NodScid mice, generated by in-house breeding in the animal facilities of Bar Ilan University, at the same procedure described in example 1. • 36 mice whose tumors reached average size of about 110 mm^3 were included in the study.
# The mice were divided into 7 groups and the following treatments initiated (day 0): • Control: Vehicle of NT219 (20% HPbCD) 50 μl IV twice a week—5 mice • Compound D 70 mg/kg IV twice a week—5 mice • Cetuximab 1 mg/mouse IP twice a week—5 mice • FOLFIRI IP 5 times a week—5 mice • Cetuximab 1 mg/mouse IP twice a week+FOLFIRI IP 5 times a week—5 mice • Cetuximab 1 mg/mouse IP twice a week+FOLFIRI IP 5 times a week+Compound D 70 mg/kg IV twice a week—6 mice
# as §1
substance,measurement,setting,value
Cetuximab: EGFR antibody,tumor response while on treatment,"HNSCC tumor biopsy; 9 days of treatment, start ~113 mm^3",dramatic tumor regression in all mice
same,start of tumor re-growth following cease of treatments,HNSCC tumor biopsy; treatment for 9 days only,Eight days following cease of treatments
same,average tumor volume at the end of the experiment,[1]; day34,> 500 mm^3
same,tumor response,"[1]; start ~90 mm^3, Cetuximab 1 mg/mouse IP, Compound D 70 mg/kg IV, twice a week",transient tumor growth attenuation followed by acquired resistance to Cetuximab
same,effect on tumor growth,[2],No effect on tumor growth

# Source: patent publication US12201592B2, “Combinations of IRS/STAT3 dual modulators and anti-cancer agents for treating cancer” (TYRNOVO LTD., priority 2015, dated 2025)
